Test results reported in ChEMBL document CHEMBL4229338, “O6C-20-nor-salvinorin A is a stable and potent KOR agonist” (2018).

By UniProt entry, the sequences of proteins in these tests, tags left out. Where a name states a change or a piece, a line headed by the entry shows the natural chain unless it says otherwise.
UniProt P41145: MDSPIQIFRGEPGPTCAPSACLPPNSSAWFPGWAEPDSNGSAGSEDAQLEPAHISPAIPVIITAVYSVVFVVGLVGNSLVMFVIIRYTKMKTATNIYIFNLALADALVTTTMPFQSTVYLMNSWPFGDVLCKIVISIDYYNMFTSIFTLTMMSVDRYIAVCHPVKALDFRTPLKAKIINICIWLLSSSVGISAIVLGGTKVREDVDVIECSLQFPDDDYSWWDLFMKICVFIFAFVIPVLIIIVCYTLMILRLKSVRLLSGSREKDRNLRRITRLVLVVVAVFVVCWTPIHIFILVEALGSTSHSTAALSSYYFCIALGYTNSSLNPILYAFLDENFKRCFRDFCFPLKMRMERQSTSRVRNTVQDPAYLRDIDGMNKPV

Assays:
[1] = target: Kappa-type opioid receptor (Homo sapiens) (UniProt P41145); assay: Agonist activity at human KOR expressed in CHO cells assessed as inhibition of forskolin-stimulated cAMP accumulation after 30 mins by HTRF assay relative to U69,593
[2] = target: Kappa-type opioid receptor (Homo sapiens) (UniProt P41145); assay: Agonist activity at human KOR expressed in CHO cells assessed as induction of beta-arrestin-2 recruitment by enzyme fragment complementation assay relative to U69,593

For `COC(=O)[C@@H]1C[C@H](OC(C)=O)C(=O)[C@@H]2[C@H]3C[C@@H](c4ccoc4)CC(=O)[C@@H]3CC[C@]21C`, the Emax [1] was 109% and the Emax [2] was 87%.
